# Where “and” joins values, the source holds several entries; their conditions need not be identical. Identical values can stand only once.
# Chains of the proteins cited; added tags and fusions are not shown.
# UniProt P47746, whole entry: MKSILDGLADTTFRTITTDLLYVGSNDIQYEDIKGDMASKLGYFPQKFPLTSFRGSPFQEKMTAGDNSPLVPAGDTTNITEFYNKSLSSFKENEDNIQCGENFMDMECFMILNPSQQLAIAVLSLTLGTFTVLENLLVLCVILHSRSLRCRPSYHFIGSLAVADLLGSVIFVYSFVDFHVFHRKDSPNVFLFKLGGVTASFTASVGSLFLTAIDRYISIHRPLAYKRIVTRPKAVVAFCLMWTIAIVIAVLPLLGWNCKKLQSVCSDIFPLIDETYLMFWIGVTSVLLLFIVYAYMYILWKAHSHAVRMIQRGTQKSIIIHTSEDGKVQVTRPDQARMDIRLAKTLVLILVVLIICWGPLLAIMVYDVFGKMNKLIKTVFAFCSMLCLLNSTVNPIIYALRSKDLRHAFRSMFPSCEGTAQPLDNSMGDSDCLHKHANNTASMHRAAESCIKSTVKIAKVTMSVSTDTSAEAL
# Biological target: cannabinoid type-1 receptors endogenously expressed in Neuro2A cells (Mus musculus, UniProt P47746)
# Test: Intracellular cAMP levels
# Format: cell-based
# Conditions: concentration-effect curve, intact Neuro2A cells, 10 μM forskolin
compound,measurement,value
"Cc1c(C(=O)c2cccc3ccccc23)c2cccc3c2n1[C@H](CN1CCOCC1)CO3 [WIN-55,212-2]",Adenylyl Cyclase Inhibition Imax (% Inhibition),40.3 ± 1.2 % Inhibition and 40.3 ± 1.2^a % Inhibition

# Reference: PMC4383465 (European journal of pharmacology, 2014)
